The text below walks through data of PubChem BioAssay AID2690 (NMMLSC, 2010).

The entries are a selection whose mix differs from that of the whole data set. Activity calls are given as the source filed them.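 Rule for the calls: active = superoxide response under a set limit, about three screen SD below normal (cut at about 65% in these data); inactive = the rest.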

A short description of the assay: yeast aging ROS inhibitors as calorie-restriction mimetics – HTS, primary screen (AID 2690).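 Note: yeast aged for seven days with compound at 30 °C before DHE staining; 100% = average MFI of all compound-treated wells on the plate with controls excluded.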 The following applies: S. cerevisiae aged cells, superoxide DHE fluorescence; at 10 µM; stronger effect = lower value.
Turning to `CCOc1ccc(C2=NCC(CBr)S2)cc1` (configuration not stated), the superoxide response (% of plate mean) was inactive: 102%. As to `O=P1(Nc2nc3ccc(Cl)cc3s2)COc2ccccc2O1` (configuration not stated), the superoxide response (% of plate mean) was inactive: 94%. Then `CC(C)(C)C(=O)NC(Sc1ccccc1)C(Cl)(Cl)Cl` (configuration not stated), with inactive: 96.2%; and `CC(=O)c1ccc(N2CC2c2ccncc2)cc1` (configuration not stated), with inactive: 86.7%. Next, `C[C@@H]1C=CCP(=O)(Oc2ccccc2)O1` (some centres not stated): inactive: 94.3%; `C[C@H]1OP(=O)(Oc2ccccc2)C[C@@H]2O[C@@H]21` (some centres not stated): inactive: 103%; `Cc1ccccc1CN(C)C(=O)COC(=O)C(O)(c1ccccc1)c1ccccc1`: inactive: 94.2%. Then `CC(=O)Nc1ccc(Oc2c([N+](=O)[O-])cc([N+](=O)[O-])cc2[N+](=O)[O-])cc1`, with inactive: 160%; and `CC(=O)Nc1ccc([As](=O)(O)O)c(O)c1`, with inactive: 96.1%. As for `O=P(Nc1nccs1)(c1ccccc1)c1ccccc1`, the superoxide response (% of plate mean) was inactive: 95.2%.

`CC(C)C(=O)NC(Sc1ccccc1)C(Cl)(Cl)Cl` (configuration not stated): the superoxide response (% of plate mean) was inactive: 77.3%. With `c1nnnn1CCn1cnnn1`, the superoxide response (% of plate mean) is inactive: 116%.

With `CN(C)C1(CNC(=O)c2ccc(Cl)c(S(N)(=O)=O)c2)CCCCC1`, the superoxide response (% of plate mean) is inactive: 101%.

As for `O=P(Nc1ccccn1)(c1ccc(Br)cc1)c1ccc(Br)cc1`, the superoxide response (% of plate mean) was inactive: 97.7%. Next, `C[C@H]1OP(=O)(Oc2ccccc2)[C@H](O)[C@H](O)[C@H]1N=[N+]=[N-]` (some centres not stated): inactive: 94.1%. Next, `O=P(Nc1nc2ccccc2s1)(c1ccccc1)c1ccccc1`: inactive: 85.7%; `CC(=O)NC(SC(=S)N(C)C)C(Cl)(Cl)Cl` (configuration not stated): inactive: 89.9%; `O=[N+]([O-])c1ncn(CCn2cnc([N+](=O)[O-])n2)n1`: inactive: 125%. Then `O=[N+]([O-])c1ccc(O)c(/C=N/Nc2ccc([N+](=O)[O-])cc2[N+](=O)[O-])c1`, with inactive: 95.8%; and `O=[As](O)(c1ccccc1)c1ccc(O)cc1`, with inactive: 104%; and `Nc1ccc([As](=O)(O)c2ccc([N+](=O)[O-])cc2)cc1`, with inactive: 122%. Turning to `C(Cc1nn[nH]n1)Cc1nn[nH]n1`, the superoxide response (% of plate mean) was inactive: 101%. For `O=C(OC1CN2CCC1CC2)c1cccc(Cl)c1` (configuration not stated), the superoxide response (% of plate mean) is inactive: 97.7%. Next, `Cc1ccc(C(=O)OC2CN3CCC2CC3)cc1` (configuration not stated): inactive: 107%; `CC1CCC(C(C)C)C(OP(=O)(Nc2ccccn2)c2ccccc2)C1` (configuration not stated): inactive: 81.3%.

Turning to `Cc1nn(-c2ccccc2)c2c1P(=O)(N1CCOCC1)N(C)C(c1ccccc1)=N2` (configuration not stated), the superoxide response (% of plate mean) is inactive: 95.3%.

In the case of `O=C(/C=C/c1ccccc1)OC1CN2CCC1CC2` (configuration not stated), the superoxide response (% of plate mean) was inactive: 101%. On to `CN(C)C1(CNC(=O)c2ccc(S(C)(=O)=O)cc2)CCCCC1`, for which the superoxide response (% of plate mean) was inactive: 107%. In the case of `O=P1(Nc2ncccn2)COc2ccccc2OC1`, the superoxide response (% of plate mean) was inactive: 109%. Next, `NS(=O)(=O)c1cccc(NC(=O)COC(=O)C(O)(c2ccccc2)c2ccccc2)c1`: inactive: 115%; `O=P1(Nc2ccc(Br)cn2)COc2ccccc2OC1`: inactive: 87.2%; `Cc1ccc(OCC(=O)OC2CN3CCC2CC3)cc1` (configuration not stated): inactive: 96.6%.

Turning to `O=[As](O)(c1cccs1)c1cccs1`, the superoxide response (% of plate mean) was inactive: 67.4%. Then `Nc1cccc([As](=O)(O)c2ccccc2)c1`, with inactive: 101%.

For the compound `CN(CCCl)Cc1cc(Cl)c(NC2=NCCN2)c(Cl)c1`, the superoxide response (% of plate mean) was inactive: 100%. Next, `CCOP(=O)(Nc1ccc(C)cn1)OCC`: inactive: 75.8%; `CCOP(=O)(NC(=NC(C)c1ccccc1)NC(C)c1ccccc1)OCC` (configuration not stated): inactive: 109%; `CCC1=CC2Cc3nc4ccc(Cl)cc4c(N)c3C(C1)C2` (configuration not stated): inactive: 100%. Next, `O=P1(Nc2ccccn2)COc2ccccc2OC1`: inactive: 106%. For the compound `CC(C)(C)C(=O)NC(Sc1ncccn1)C(Cl)(Cl)Cl` (configuration not stated), the superoxide response (% of plate mean) is inactive: 109%. Then `Clc1n[nH]nc1-c1nn[nH][15n]1`, with inactive: 103%; and `COc1ccccc1CNC(=O)COC(=O)C(O)(c1ccccc1)c1ccccc1`, with inactive: 89.2%; and `CC1(CBr)Cn2c(nc3ccccc3c2=O)S1` (configuration not stated), with inactive: 103%. Take `O=[As](O)(c1ccccc1Br)c1ccccc1Br`: the superoxide response (% of plate mean) is inactive: 112%.

`CN(C(=O)Cc1ccc(Cl)c(Cl)c1)[C@@H]1CCCC[C@H]1N1CCCC1`: the superoxide response (% of plate mean) is inactive: 96.7%.

Regarding `CC(C)/C=N\N=C(\N)N[N+](=O)[O-]`, the superoxide response (% of plate mean) was inactive: 90.2%. Next, `CS(=O)(=O)c1ccc(Cl)c(NC(=O)COC(=O)C(O)(c2ccccc2)c2ccccc2)c1`: inactive: 99.5%. With `COc1cc(C(=O)NCC2(N3CCOCC3)CCCCC2)cc(Cl)c1OC(C)C`, the superoxide response (% of plate mean) is inactive: 99.1%. Consider `O=[As](O)(O)c1cccnc1`, for which the superoxide response (% of plate mean) was inactive: 88.6%.

As for `O=C(OC1CN2CCC1CC2)c1ccc(Cl)cc1` (configuration not stated), the superoxide response (% of plate mean) was inactive: 107%. Next, `O=[As](O)(c1cccc(O)c1)c1cccc(O)c1`: inactive: 112%.

For `Cc1cccc(OCC(=O)OC2CN3CCC2CC3)c1` (configuration not stated), the superoxide response (% of plate mean) was inactive: 92.8%.
